# Cyclic peptide permeability, from CycPeptMPDB

Data: CycPeptMPDB; original report Kelly et al. 2021, doi:10.1021/jacs.0c06115.

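The data file gives no further conditions (lipid, pH, time, direction or concentration), and values from different papers need not be comparable. Other peptides of the study may be missing here. Peptides that the database sets to -10, its floor, are left out.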

PAMPA measures passive passage through an artificial lipid membrane.
P is given in units of 10^-6 cm/s (from log10 values with two decimals); larger means faster passage.

compound,PAMPA (10^-6 cm/s)
CC(=O)N1CCC[C@H]1C(=O)N(C)[C@H](CC(C)C)C(=O)N[C@@H]1C(=O)N[C@H](Cc2ccc(F)cc2)C(=O)N[C@@H](CC(C)C)C(=O)N[C@H](CC(C)C)C(=O)N(C)[C@H](C)C(=O)N[C@@H](CC(C)C)C(=O)N2CCC[C@H]2C(=O)O[C@@H]1C,2.5
CCC[C@@H]1NC(=O)[C@@H](CC2CCCCC2)NC(=O)[C@@H](NC(=O)[C@@H](CC(C)C)N(C)C(=O)[C@@H]2CCCN2C(C)=O)[C@@H](C)OC(=O)[C@@H]2CCCN2C(=O)[C@H](CC(C)C)NC(=O)[C@@H](C)N(C)C(=O)[C@@H](Cc2ccccc2)NC1=O,3
CC(=O)N[C@@H]1C(=O)N2CCC[C@H]2C(=O)N(C)[C@H](CC(C)C)C(=O)N[C@H](CC(C)C)C(=O)N(C)[C@H](CC(C)C)C(=O)N[C@H](CC(C)C)C(=O)N[C@@H](C)C(=O)N[C@@H](CC(C)C)C(=O)N2CCC[C@@H]2C(=O)O[C@@H]1C,0.74
CC(=O)N1CCC[C@H]1C(=O)N[C@@H]1C(=O)N(C)[C@H](CC(C)C)C(=O)N(C)[C@H](CC(C)C)C(=O)N(C)[C@@H](CC(C)C)C(=O)N(C)[C@@H](CC(C)C)C(=O)N[C@@H](C)C(=O)N[C@@H](CC(C)C)C(=O)N2CCC[C@@H]2C(=O)O[C@@H]1C,7.1
CCC[C@@H]1NC(=O)[C@@H](CC)NC(=O)[C@@H](NC(=O)[C@@H](CC(C)C)N(C)C(=O)[C@@H]2CCCN2C(C)=O)[C@@H](C)OC(=O)[C@@H]2CCCN2C(=O)[C@H](CC(C)C)NC(=O)[C@@H](C)N(C)C(=O)[C@@H](CC2CCCCC2)NC1=O,4.8
COc1ccc(C[C@@H]2NC(=O)[C@@H](CC(C)C)NC(=O)[C@@H](NC(=O)[C@@H](CC(C)C)N(C)C(=O)[C@@H]3CCCN3C(C)=O)[C@@H](C)OC(=O)[C@@H]3CCCN3C(=O)[C@H](CC(C)C)NC(=O)[C@@H](C)N(C)C(=O)[C@@H](Cc3ccccc3)NC2=O)cc1,1.9
COc1ccc(C[C@@H]2NC(=O)[C@@H](CC(C)C)NC(=O)[C@@H](NC(=O)[C@@H](CC(C)C)N(C)C(=O)[C@@H]3CCCN3C(C)=O)[C@@H](C)OC(=O)[C@@H]3CCCN3C(=O)[C@H](CC(C)C)NC(=O)[C@@H](C)N(C)C(=O)[C@@H](CC(C)C)NC2=O)cc1,1.4
CC(=O)N[C@@H]1C(=O)N2CCC[C@H]2C(=O)N(C)[C@H](CC(C)C)C(=O)N[C@H](CC(C)C)C(=O)N(C)[C@@H](CC(C)C)C(=O)N[C@@H](CC(C)C)C(=O)N[C@@H](C)C(=O)N[C@@H](CC(C)C)C(=O)N2CCC[C@@H]2C(=O)O[C@@H]1C,0.13
CC[C@H]1NC(=O)[C@@H](NC(=O)[C@@H](CC(C)C)N(C)C(=O)[C@@H]2CCCN2C(C)=O)[C@@H](C)OC(=O)[C@@H]2CCCN2C(=O)[C@H](CC(C)C)NC(=O)[C@@H](C)N(C)C(=O)[C@@H](CC2CCCCC2)NC(=O)[C@H](Cc2ccc(OC)cc2)NC1=O,3.5
CCC[C@H]1NC(=O)[C@H](Cc2ccc(OC)cc2)NC(=O)[C@@H](CC(C)C)NC(=O)[C@@H](NC(=O)[C@@H](CC(C)C)N(C)C(=O)[C@@H]2CCCN2C(C)=O)[C@@H](C)OC(=O)[C@@H]2CCCN2C(=O)[C@H](CC(C)C)NC(=O)[C@@H](C)N(C)C1=O,0.87
CC(=O)N1CCC[C@H]1C(=O)N[C@@H]1C(=O)N(C)[C@H](CC(C)C)C(=O)N(C)[C@@H](CC(C)C)C(=O)N[C@@H](CC(C)C)C(=O)N(C)[C@H](CC(C)C)C(=O)N(C)[C@@H](C)C(=O)N[C@@H](CC(C)C)C(=O)N2CCC[C@@H]2C(=O)O[C@@H]1C,3.6
CC(=O)N1CCC[C@H]1C(=O)N(C)[C@H](CC(C)C)C(=O)N[C@@H]1C(=O)N[C@H](Cc2ccccc2)C(=O)N[C@@H](Cc2ccc([N+](=O)[O-])cc2)C(=O)N[C@H](Cc2cccc3ccccc23)C(=O)N(C)[C@H](C)C(=O)N[C@@H](CC(C)C)C(=O)N2CCC[C@H]2C(=O)O[C@@H]1C,0.14
COc1ccc(C[C@@H]2NC(=O)[C@@H](CC(C)C)NC(=O)[C@@H](NC(=O)[C@@H](CC(C)C)N(C)C(=O)[C@@H]3CCCN3C(C)=O)[C@@H](C)OC(=O)[C@@H]3CCCN3C(=O)[C@H](CC(C)C)NC(=O)[C@@H](C)N(C)C(=O)[C@@H](Cc3cccc4ccccc34)NC2=O)cc1,0.48
CC(=O)N1CCC[C@H]1C(=O)N(C)[C@H](CC(C)C)C(=O)N[C@@H]1C(=O)N[C@H](Cc2cccc3ccccc23)C(=O)N[C@@H](CCc2ccccc2)C(=O)N[C@H](CC(C)C)C(=O)N(C)[C@H](C)C(=O)N[C@@H](CC(C)C)C(=O)N2CCC[C@H]2C(=O)O[C@@H]1C,3.5
CC[C@H]1NC(=O)[C@@H](NC(=O)[C@@H](CC(C)C)N(C)C(=O)[C@@H]2CCCN2C(C)=O)[C@@H](C)OC(=O)[C@@H]2CCCN2C(=O)[C@H](CC(C)C)NC(=O)[C@@H](C)N(C)C(=O)[C@@H](CC2CCCCC2)NC(=O)[C@H](Cc2ccc(F)cc2)NC1=O,1
CC(=O)N[C@@H]1C(=O)N2CCC[C@H]2C(=O)N(C)[C@H](CC(C)C)C(=O)N(C)[C@H](CC(C)C)C(=O)N[C@H](CC(C)C)C(=O)N[C@H](CC(C)C)C(=O)N[C@@H](C)C(=O)N[C@@H](CC(C)C)C(=O)N2CCC[C@@H]2C(=O)O[C@@H]1C,0.23
CC(=O)N1CCC[C@H]1C(=O)N(C)[C@H](CC(C)C)C(=O)N[C@@H]1C(=O)N[C@H](Cc2ccc(F)cc2)C(=O)N[C@@H](Cc2ccc(F)cc2)C(=O)N[C@H](Cc2ccccc2)C(=O)N(C)[C@H](C)C(=O)N[C@@H](CC(C)C)C(=O)N2CCC[C@H]2C(=O)O[C@@H]1C,1.5
CC(=O)N[C@@H]1C(=O)N2CCC[C@H]2C(=O)N(C)[C@H](CC(C)C)C(=O)N[C@@H](CC(C)C)C(=O)N[C@@H](CC(C)C)C(=O)N(C)[C@H](CC(C)C)C(=O)N[C@@H](C)C(=O)N[C@@H](CC(C)C)C(=O)N2CCC[C@@H]2C(=O)O[C@@H]1C,0.32

The first 2 entries again:

compound,PAMPA (10^-6 cm/s)
CC(=O)N1CCC[C@H]1C(=O)N(C)[C@H](CC(C)C)C(=O)N[C@@H]1C(=O)N[C@H](Cc2ccc(F)cc2)C(=O)N[C@@H](CC(C)C)C(=O)N[C@H](CC(C)C)C(=O)N(C)[C@H](C)C(=O)N[C@@H](CC(C)C)C(=O)N2CCC[C@H]2C(=O)O[C@@H]1C,2.5
CCC[C@@H]1NC(=O)[C@@H](CC2CCCCC2)NC(=O)[C@@H](NC(=O)[C@@H](CC(C)C)N(C)C(=O)[C@@H]2CCCN2C(C)=O)[C@@H](C)OC(=O)[C@@H]2CCCN2C(=O)[C@H](CC(C)C)NC(=O)[C@@H](C)N(C)C(=O)[C@@H](Cc2ccccc2)NC1=O,3